# Reference: PubChem BioAssay (NCI)
#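 All cell lines were grown in 96-well plates and treated with compound for 48 hours. GI50 = concentration required for 50% inhibition of growth. Definition used: TGI = concentration required for complete inhibition of growth.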
# Assays:
# Experiment in all cases: inhibition of tumour cell growth, NCI panel, 48 h
# NCI/ADR-RES ovarian = tested on: NCI/ADR-RES ovarian
# MOLT-4 leukemia = tested on: MOLT-4 leukemia
# IGROV1 ovarian = tested on: IGROV1 ovarian
# SK-OV-3 ovarian = tested on: SK-OV-3 ovarian
# HCT-15 colon = tested on: HCT-15 colon
# A549 NSCLC = tested on: A549 NSCLC
# NCI-H23 lung = tested on: NCI-H23 lung
# SW-620 colon = tested on: SW-620 colon
# M14 melanoma = tested on: M14 melanoma
# NCI-H322M lung = tested on: NCI-H322M lung
# NCI-H460 lung = tested on: NCI-H460 lung
# NCI-H522 lung = tested on: NCI-H522 lung
# A498 renal = tested on: A498 renal
# SF-268 CNS = tested on: SF-268 CNS
# DU-145 prostate = tested on: DU-145 prostate
# T-47D breast = tested on: T-47D breast
# NCI-H226 lung = tested on: NCI-H226 lung
# UACC-257 melanoma = tested on: UACC-257 melanoma
# CAKI-1 renal = tested on: CAKI-1 renal
# SK-MEL-2 melanoma = tested on: SK-MEL-2 melanoma
# HCC-2998 colon = tested on: HCC-2998 colon
# COLO 205 colon = tested on: COLO 205 colon
# SN12C renal = tested on: SN12C renal
# 786-0 renal = tested on: 786-0 renal
# HS 578T breast = tested on: HS 578T breast
# OVCAR-4 ovarian = tested on: OVCAR-4 ovarian
# UO-31 renal = tested on: UO-31 renal
# HCT-116 colon = tested on: HCT-116 colon
# OVCAR-5 ovarian = tested on: OVCAR-5 ovarian
smiles,measurement,setting,value
Nc1nonc1-c1no[n+]([O-])c1-c1nonc1N,GI50,NCI/ADR-RES ovarian,26.4 µM
same,TGI,NCI/ADR-RES ovarian,97.9 µM
same,GI50,MOLT-4 leukemia,5.4 µM
same,TGI,MOLT-4 leukemia,> 100 µM
same,GI50,IGROV1 ovarian,10.9 µM
same,TGI,IGROV1 ovarian,24.4 µM
same,GI50,SK-OV-3 ovarian,17.6 µM
same,TGI,SK-OV-3 ovarian,32.1 µM
same,GI50,HCT-15 colon,10.9 µM
same,TGI,HCT-15 colon,35.1 µM
same,GI50,A549 NSCLC,27.8 µM
same,TGI,A549 NSCLC,72.5 µM
same,GI50,NCI-H23 lung,11.5 µM
same,TGI,NCI-H23 lung,33.9 µM
same,GI50,SW-620 colon,11.8 µM
same,TGI,SW-620 colon,29.8 µM
same,GI50,M14 melanoma,10.4 µM
same,TGI,M14 melanoma,32.8 µM
same,GI50,NCI-H322M lung,18.6 µM
same,TGI,NCI-H322M lung,44.6 µM
same,GI50,NCI-H460 lung,13.2 µM
same,TGI,NCI-H460 lung,29.5 µM
same,GI50,NCI-H522 lung,4.52 µM
same,TGI,NCI-H522 lung,17.4 µM
same,GI50,A498 renal,25.1 µM
same,TGI,A498 renal,73.4 µM
same,GI50,SF-268 CNS,18.5 µM
same,TGI,SF-268 CNS,48.2 µM
same,GI50,DU-145 prostate,17.5 µM
same,TGI,DU-145 prostate,36.2 µM
same,GI50,T-47D breast,21.5 µM
same,TGI,T-47D breast,62.7 µM
same,GI50,NCI-H226 lung,16.3 µM
same,TGI,NCI-H226 lung,35.5 µM
same,GI50,UACC-257 melanoma,15.2 µM
same,TGI,UACC-257 melanoma,38.7 µM
same,GI50,CAKI-1 renal,15 µM
same,TGI,CAKI-1 renal,40.2 µM
same,GI50,SK-MEL-2 melanoma,13.4 µM
same,TGI,SK-MEL-2 melanoma,29.4 µM
same,GI50,HCC-2998 colon,12.4 µM
same,TGI,HCC-2998 colon,26 µM
same,GI50,COLO 205 colon,8.5 µM
same,TGI,COLO 205 colon,28.5 µM
same,GI50,SN12C renal,14.5 µM
same,TGI,SN12C renal,25.9 µM
same,GI50,786-0 renal,33.6 µM
same,TGI,786-0 renal,> 100 µM
same,GI50,HS 578T breast,32.3 µM
same,TGI,HS 578T breast,> 100 µM
same,GI50,OVCAR-4 ovarian,10.7 µM
same,TGI,OVCAR-4 ovarian,31.7 µM
same,GI50,UO-31 renal,15.3 µM
same,TGI,UO-31 renal,31.2 µM
same,GI50,HCT-116 colon,12.5 µM
same,TGI,HCT-116 colon,59.6 µM
same,GI50,OVCAR-5 ovarian,19.2 µM
same,TGI,OVCAR-5 ovarian,49.7 µM
